# Assay outcomes from PubChem BioAssay.
# Sampled rows, rich in hits. Any-hit rate of the full collection: about 1.7%.
# Yeast UUG start = alters start codon recognition fidelity in yeast. S. cerevisiae UUG-firefly luciferase reporter, luminescence/redox ratio. 350,000 tested, 0.13% active. activity score, % at 18.7 µM. AID 602363;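 active means replicate mean at a twofold rise or more, about +100% in these data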;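 further: firefly luciferase made from a UUG start codon reports start codon fidelity; reporter light over untreated wells divided by growth signal over untreated wells; some hits fall short of that in this replicate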
# dFosB activator = activators of delta FosB homodimer, primary screen, biochemical, fluorescence polarization, TAMRA-CDK5 oligo, single point. Protein FosB (Mus musculus), P13346. purified delta FosB; percent of positive-control signal above neutral wells. activation, % at 25 µM. 0.99% of 340,000 active. AID 493131, 2011;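 active = mean activation above about 17%, with every replicate also reaching it, limit read from the data, passing the limit was not always enough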
# CDK5 inh = inhibitors of human CDK5/p35 kinase, primary screen, biochemical, single concentration; 0.01% of 330,000 active; Recombinant CDK5/p35, ADP-Glo luminescence, 60 min; Cyclin-dependent kinase 5 (Homo sapiens) + Cyclin-dependent kinase 5 activator 1 (Homo …; inhibition, % at 10 µM;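 active = highest replicate inhibition of at least 50% and at least 75% of replicates reaching 50%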;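 also: plate controls were DMSO neutral control for no effect and GW8510 at 10 µM for full effect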
# DYRK1A inh = rat Dyrk1A kinase inhibitors, primary screen, biochemical, single point, plate reader; ADP-Glo luminescence, NFATc1 peptide; inhibition, % at 12.5 µM; 0.43% of 310,000 active; Dual specificity tyrosine-phosphorylation-regulated kinase 1A (Rattus norvegicus), Q63470; in the data active = inhibition above about 50%;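 also: plate controls were vehicle with enzyme for no effect and no enzyme for full effect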
# CAL PDZ FP-1 = untagged CAL PDZ binding inhibitors, primary screen, biochemical, fluorescence polarization, HTS; inhibition, % at 24.9 µM; purified CAL PDZ, TMR-peptide fluorescence polarization, 1 h; 0.92% of 300,000 active;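 active = mean inhibition of at least 30% with at least half of replicates also reaching 30%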;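 also: 0% = DMSO neutral control and 100% = excess unlabeled competitor peptide PRC23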
# CAL PDZ FP-2 = CAL PDZ peptide-binding inhibitors, primary screen, biochemical, fluorescence polarization, Cer-tagged CAL PDZ, HTS. Golgi-associated PDZ and coiled-coil motif-containing protein (Homo sapiens), Q9HD26. AID 504414, 2011. 0.02% of 330,000 active. inhibition, % at 20 µM. purified CAL PDZ, TMR-peptide fluorescence polarization, 1 h;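 active = highest replicate inhibition of at least 40%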;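 also: plate controls were DMSO neutral control wells for no effect and unlabeled competitor peptide control wells for full effect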
#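 Material – purified CerCALP PDZ construct · Detection – FP readout, S and P plane fluorescence · Measure – percent inhibition from loss of millipolarization · Controls – unlabelled peptide for full inhibition, DMSO wells as neutral · Probe or stimulus – TMR-labelled reporter peptide T*-PRC34 bound in PDZ groove · Times – 1 h at RT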
# * = called active by the depositor; · = no result.
no.	molecule	Yeast UUG start	dFosB activator	CDK5 inh
1	COC(=O)CCC(=O)N1CCOCCOCCOCC1	·	-3	-3
2	COC(=O)CCC(=O)N1CCOCCOCCN(C(=O)CCC(=O)OC)CCOCCOCC1	-6	2	1
3	CO[C@@H]1CN(C)C(=O)c2cc(NC(=O)NC3CCCCC3)ccc2OC[C@H](C)N(C(C)=O)C[C@@H]1C	8	·	·
4	COc1ccc(-n2c(C)cc(-c3csc(N)n3)c2C)cc1	2	25*	0
5	Cc1cc(-c2csc(N)n2)c(C)n1-c1ccc(Cl)c(Cl)c1	·	-1	-1
6	CN1C(=O)c2cc(NC(=O)Nc3ccccc3Cl)ccc2OC[C@H]2O[C@H](CC(=O)O)CC[C@@H]21	1	·	·
7	CC#CC[N+](C)(CC#CC)CC(=O)c1ccccc1	·	0	1
8	COc1c(-c2ccc(O)c(O)c2)oc2cc(O)cc(O)c2c1=O	-13	-18	10
9	O=c1c(OC2OC(CO)C(O)C(O)C2OC2OC(CO)C(O)C(O)C2OC2OC(CO)C(O)C(O)C2O)c(-c2ccc(O)c(O)c2)oc2cc(O)cc(O)c12 (configuration not stated)	-1	4	-1
10	COc1cc(/C=C(\CC(=O)O)c2nc3ccccc3s2)ccc1OCC(=O)Nc1ccccc1F	-3	-10	1
11	CO[C@@H]1CN(C)C(=O)c2cc(NS(=O)(=O)c3cn(C)cn3)ccc2OC[C@@H](C)N(Cc2cccc(Cl)c2)C[C@H]1C	-13	·	·
12	COC(=O)C(CC#Cc1ccc2c(c1)[C@]1(C(=O)N2)[C@H](c2ccc(OCCO)cc2)N2[C@H](c3ccccc3)[C@H](c3ccccc3)OC(=O)[C@H]2[C@@H]1C(=O)N1CCCCCCC1)C(=O)OC	-7	·	·

no.	DYRK1A inh	CAL PDZ FP-1	CAL PDZ FP-2
1	-4	40*	0
2	7	-2	0
3	·	·	·
4	4	-2	-3
5	-4	-2	0
6	·	·	·
7	4	58*	1
8	85*	0	0
9	26	0	0
10	4	133*	-4
11	·	·	·
12	·	·	·

# Individual results from the entries so far.
# Yeast UUG start with entry 11 stands at -13
# CAL PDZ FP-2 with entry 10 stands at -4
# Yeast UUG start with entry 6 stands at 1

# (continued)
no.	molecule	Yeast UUG start	dFosB activator	CDK5 inh
13	COc1ccc(CCn2c(C)cc3c(c2=O)C(c2ccc4c(c2)OCO4)C(C#N)=C(N)O3)cc1OC (configuration not stated)	7	51*	0
14	O=C(CCCN1C(=O)/C(=C/c2cccs2)SC1=S)Nc1cccc(O)c1	2	-7	2
15	O=C(CCCN1C(=O)/C(=C\c2cccs2)SC1=S)Nc1cc([N+](=O)[O-])ccc1O	-11	26*	-1
16	O=C(CCN1C(=O)/C(=C/c2cccs2)SC1=S)Nc1ccccc1O	-10	21*	-1
17	CC(C)(C)NC(=O)CCSc1nnc(-c2ccco2)o1	13	-1	0
18	NNC(=O)c1ccc2[nH]c3c(c2c1)CCCC3	·	-2	1
19	CN1CCc2[nH]c3ccc(C(=O)NN)cc3c2C1	-6	20*	3
20	O=C(CC1CC1)N[C@@H]1CC[C@H](CCNS(=O)(=O)c2ccc(Cl)cc2)O[C@@H]1CO	-26	·	·
21	O=C(NCc1ccccc1)c1ncn[nH]1	0	-6	1
22	O=C(NCCc1ccccc1)c1ncn[nH]1	10	-3	-3
23	O=C(NCC[C@H]1CC[C@@H](NC(=O)C2CC2)[C@@H](CO)O1)c1cnccn1	-5	·	·
24	CO[C@@H]1CN(C)C(=O)c2ccc(NC(=O)c3ccccc3)cc2OC[C@@H](C)N(C(=O)CN(C)C)C[C@H]1C	3	·	·
25	O=C(C[C@H]1CC[C@H]2[C@@H](COC[C@@H](O)CN2S(=O)(=O)c2cccc(Cl)c2)O1)NC1Cc2ccccc2C1	3	·	·

no.	DYRK1A inh	CAL PDZ FP-1	CAL PDZ FP-2
13	-1	-2	0
14	-6	-3	-2
15	-4	-1	-1
16	-4	·	2
17	-3	111*	16
18	0	·	0
19	24	·	-3
20	·	·	·
21	5	112*	0
22	-1	-3	-2
23	·	·	·
24	·	·	·
25	·	·	·

# Along the list, as entered above.
# Nos. 13 to 19 in CAL PDZ FP-2, in turn: 0, -2, -1, 2, 16, 0, -3
# Nos. 13 to 19 in dFosB activator, in turn: 51*, -7, 26*, 21*, -1, -2, 20*
# Nos. 13 to 19 in Yeast UUG start, in turn: 7, 2, -11, -10, 13, ·, -6
